Measurements from PubChem BioAssay AID1992 (Sanford-Burnham Center for Chemical Genomics, 2009).
The entries are a selection whose mix differs from that of the whole data set. Activity calls are given as the source filed them. No stated cut-off is given here; in the data, active means inhibition above about 60%; inactive means the rest.

By UniProt entry, the sequences of proteins in these tests, tags left out.
UniProt P51452, whole entry: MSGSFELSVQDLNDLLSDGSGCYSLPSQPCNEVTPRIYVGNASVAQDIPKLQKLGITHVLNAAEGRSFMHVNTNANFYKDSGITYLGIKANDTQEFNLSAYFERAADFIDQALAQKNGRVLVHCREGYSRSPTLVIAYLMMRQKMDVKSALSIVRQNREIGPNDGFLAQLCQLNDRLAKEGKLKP

The compounds below were run against Dual specificity protein phosphatase 3 (Homo sapiens) (UniProt P51452) (assay: VHR1 phosphatase inhibitors, primary screen, biochemical, colorimetric, HTS (AID 1992)). Details: recombinant VHR phosphatase, colorimetric substrate read-out; at 20 µM; stronger effect = higher value.
With `CP(=O)(Oc1ccc(F)cc1)Oc1ccc(F)cc1` the inhibition was inactive: -8.7%.
For `CCc1ccc(OP(C)(=O)O)cc1`, the inhibition was inactive: 1.5%.
In the case of `CN(C)CCOC(=O)C(O)(c1ccccc1)c1ccccc1`, the inhibition is reported as inactive: -2.3%.
`CP(=O)(Oc1ccccc1F)Oc1ccccc1F` was tested, and the inhibition was inactive: -10.4%.
For `CP(=O)(Oc1ccccc1)Oc1ccccc1`, the inhibition was inactive: -14.1%.
In the case of `CP(=O)(Oc1ccc(Cl)cc1)Oc1ccc(Cl)cc1`, the inhibition is reported as inactive: -13.6%.
